Test results published in publication PMC5963757, “Expression, purification, and inhibition profile of dihydrofolate reductase from the filarial nematode Wuchereria bancrofti” (PLoS ONE, 2018).
Read-outs that look alike come from different tables or passages of the source.

Assays:
WbDHFR [1] = target: T1, WbDHFR (Wuchereria bancrofti, UniProt J9F199); format: biochemical
Procedure: Compounds (-)-epicatechin, (-)-epicatechin gallate, and vitexin were tested as inhibitors of WbDHFR and BmDHFR. The compounds (-)-epicatechin and (-)-epicatechin gallate were synthesized as described previously. […] Disappearance of DHF and NADPH was observed by measuring absorbance at 340 nm to measure the DHFR activity in a SpectraMax M3 microplate reader. […] All experiments were completed in triplicate.

WbDHFR [2] = target: T1, WbDHFR
Procedure: To determine the mechanism of inhibition, Dixon plots were created and analyzed for the inhibitors against WbDHFR. We determined WbDHFR activity as described above at DHF concentrations of 2 μM, 4 μM, and 8 μM in 200 μL reaction volumes. WbDHFR (6 nM) and 100 μM NADPH cofactor were included in 1 X MTEN buffer at pH 6.0. […] The reciprocal initial velocities were plotted against inhibitor concentration for each substrate in Excel to create the Dixon plots. Substrate trend-lines were extended to calculate the intersection point,–KI. Each Dixon plot was generated in triplicate.
A linear equation was fitted to the data at each substrate concentration. […] The KI values for BmDHFR in Table 1 were obtained using the Cheng-Prusoff Equation [18]. […] Inhibitor structures are shown in supporting information (S2 Fig).

CN(Cc1cnc2nc(N)nc(N)c2n1)c1ccc(C(=O)N[C@@H](CCC(=O)O)C(=O)O)cc1 [Methotrexate, methotrexate]
IC50 (WbDHFR [1]; read-out: IC50 WbDHFR, pH 6.0, 100 μM NADPH, 50 μM DHF, 12.1 nM WbDHFR, average of triplicates ± S.D.): 18 ± 3 nM
IC50 (WbDHFR [1]; read-out: IC50 against WbDHFR Average, average of three trials): 17.6 nM
IC50 (WbDHFR [1]; read-out: IC50 against WbDHFR Trial 1, individual trial): 15.1 nM
IC50 (WbDHFR [1]; read-out: IC50 against WbDHFR Trial 2, individual trial): 20.1 nM
IC50 (WbDHFR [1]; read-out: IC50 against WbDHFR Trial 3, individual trial): 17.5 nM
Ki (WbDHFR [2]; read-out: Average KI, WbDHFR, average of three trials, Dixon plots): 0.68 nM
Ki (WbDHFR [2]; read-out: KI Trial 1, WbDHFR, individual trial, Dixon plot): 0.809 nM
Ki (WbDHFR [2]; read-out: KI Trial 2, WbDHFR, individual trial, Dixon plot): 0.69 nM
Ki (WbDHFR [2]; read-out: KI Trial 3, WbDHFR, individual trial, Dixon plot): 0.555 nM
Ki (WbDHFR [2]; read-out: KI WbDHFR, from Dixon plots, 6 nM WbDHFR, 100 μM NADPH, DHF 2, 4, 8 μM, pH 6.0, ± S.D.): 0.7 ± 0.1 nM
